Literature values as cited in patent US20200268817A1, “CANNABINOID COMPOSITIONS, METHODS OF MANUFACTURE AND USE THEREOF” (priority 2016, published 2020).

Settings: inhaled, pulmonary assimilation

## CCCCCc1cc(O)c2c(c1)OC(C)(C)[C@@H]1CCC(C)=C[C@@H]21 [THC, Tetrahydrocannabinol]
  time to maximum plasma concentration: within minutes
